One compound from ChEMBL document CHEMBL1129506, “2,4-Diarylpyrrolidine-3-carboxylic acids--potent ETA selective endothelin receptor antagonists. 1. Discovery of A-127722” (J Med Chem, 1996) can be followed below.

Amino acid sequences for entries named in this document (tags omitted).
UniProt P26684, whole entry: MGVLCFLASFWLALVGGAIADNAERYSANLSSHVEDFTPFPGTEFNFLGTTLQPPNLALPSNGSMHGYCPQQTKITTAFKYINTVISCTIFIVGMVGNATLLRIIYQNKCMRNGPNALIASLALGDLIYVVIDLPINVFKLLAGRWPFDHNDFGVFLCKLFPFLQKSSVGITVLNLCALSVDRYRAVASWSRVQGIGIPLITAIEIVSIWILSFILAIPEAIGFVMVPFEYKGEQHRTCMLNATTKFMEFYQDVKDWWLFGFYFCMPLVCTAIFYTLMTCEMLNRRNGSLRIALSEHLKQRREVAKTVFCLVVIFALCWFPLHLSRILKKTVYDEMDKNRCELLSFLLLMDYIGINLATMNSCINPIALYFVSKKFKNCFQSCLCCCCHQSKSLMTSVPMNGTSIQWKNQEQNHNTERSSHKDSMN

The assay deals with Endothelin-1 receptor (Rattus norvegicus, UniProt P26684). Description: Inhibitory activity against the Endothelin A receptor of rat MMQ cells. In kind it is cell-based.

For orientation: IC50 means the concentration needed to halve the response being measured. Low readings indicate greater potency, high ones weaker potency. Regarding `COc1ccc([C@@H]2[C@@H](C(=O)O)[C@H](c3ccc4c(c3)OCO4)CN2C(=O)COc2ccc(F)cc2)cc1`, the IC50 was found to be 14.1 µM.
